Biological target: canine TRPM8 (Canis lupus familiaris, UniProt Q1A7N1)
Experiment: In vitro canine TRPM8 functional assay (Ca2+-sensitive dye, FLIPR/FDSS, icilin activation)
Assay type: cell-based
Conditions: HEK293 cells expressing canine TRPM8, icilin activation; for % I (0.5 μM): 0.5 μM compound; for IC50: eight-point dose-response

Amino acid sequences for entries named in this document (tags omitted). Residues count along the entry.
UniProt Q1A7N1, 1-1104: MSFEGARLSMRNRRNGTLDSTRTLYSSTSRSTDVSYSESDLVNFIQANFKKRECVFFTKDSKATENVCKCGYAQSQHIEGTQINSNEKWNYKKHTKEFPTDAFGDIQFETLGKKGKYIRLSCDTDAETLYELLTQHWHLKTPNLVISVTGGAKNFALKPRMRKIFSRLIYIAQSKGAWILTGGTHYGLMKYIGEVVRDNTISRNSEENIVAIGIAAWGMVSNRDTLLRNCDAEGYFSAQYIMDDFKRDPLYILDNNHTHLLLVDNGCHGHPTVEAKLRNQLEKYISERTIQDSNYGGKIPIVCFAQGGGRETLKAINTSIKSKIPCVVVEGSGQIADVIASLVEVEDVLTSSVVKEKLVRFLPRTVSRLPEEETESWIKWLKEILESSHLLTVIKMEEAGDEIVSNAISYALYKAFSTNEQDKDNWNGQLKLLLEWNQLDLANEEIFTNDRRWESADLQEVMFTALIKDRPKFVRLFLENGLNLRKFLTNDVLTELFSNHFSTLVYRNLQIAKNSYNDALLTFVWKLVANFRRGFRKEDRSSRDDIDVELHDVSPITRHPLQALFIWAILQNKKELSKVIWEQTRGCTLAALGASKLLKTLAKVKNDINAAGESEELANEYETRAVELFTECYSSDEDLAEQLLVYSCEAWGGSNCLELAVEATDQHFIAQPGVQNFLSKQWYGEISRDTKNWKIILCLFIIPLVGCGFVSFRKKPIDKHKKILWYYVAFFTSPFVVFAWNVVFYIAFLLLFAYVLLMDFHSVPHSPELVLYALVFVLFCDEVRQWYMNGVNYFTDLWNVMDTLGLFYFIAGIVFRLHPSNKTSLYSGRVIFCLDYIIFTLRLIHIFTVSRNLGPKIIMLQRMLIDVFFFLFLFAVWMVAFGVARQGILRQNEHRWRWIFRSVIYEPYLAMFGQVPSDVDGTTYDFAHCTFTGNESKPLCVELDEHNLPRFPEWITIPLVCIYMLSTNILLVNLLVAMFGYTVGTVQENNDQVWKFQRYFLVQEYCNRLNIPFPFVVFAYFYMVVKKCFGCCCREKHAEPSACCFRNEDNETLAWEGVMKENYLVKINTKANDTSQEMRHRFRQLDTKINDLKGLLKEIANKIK

## CCOP(=O)(OCC)C(Cc1cccc(SC(F)(F)F)c1)c1sc2ccccc2c1Br (centres unmarked)
  % I (0.5 μM): 104%
  IC50: 102 nM

## CCOP(=O)(OCC)C(Cc1ccc(F)c(C(F)(F)F)c1)c1sc2ccccc2c1Br (centres unmarked)
  % I (0.5 μM): 102%
  IC50: 44 nM

## CCCn1c(C(Cc2ccc(F)c(C(F)(F)F)c2)P(=O)(OC(C)C)OC(C)C)c(Br)c2ccccc21 (centres unmarked)
  % I (0.5 μM): 100%
  IC50: 177 nM

## CCOP(=O)(OCC)C(Cc1ccc(Cl)c(F)c1)c1sc2ccccc2c1Cl (centres unmarked)
  % I (0.5 μM): 103%
  IC50: 122 nM

— patent publication US20080287398A1, “COLD MENTHOL RECEPTOR-1 ANTAGONISTS” (priority 2007, published 2008)
